Experimental data reported in patent US20150366852A1, “Prevention of Obesity in Antipsychotic, Antidepressant and Antiepileptic Medication” (N-Gene Research Laboratories, Inc., priority 2006, published 2015).

Tested on: female Wistar rats
Conditions: 28 days; for Average weight relative to the control group (in words): compound alone

CN(C)C(=N)N=C(N)N [Metformin]
Average weight relative to the control group (in words): somewhat higher average weight | Effect on the weight gain induced by olanzapine (in words) (together with olanzapine 1 mg/kg): did not reduce

Cc1cc2c(s1)Nc1ccccc1N=C2N1CCN(C)CC1 [Olanzapine, 2-methyl-4-(4-methyl-1-piperazinyl)-10H-thieno[2,3-b][1,5]-benzodiazepine]
Average weight relative to the control group (in words): significantly greater average weight than the control group
